Amino acid sequences for entries named in this document (tags omitted).
UniProt P14416, whole entry: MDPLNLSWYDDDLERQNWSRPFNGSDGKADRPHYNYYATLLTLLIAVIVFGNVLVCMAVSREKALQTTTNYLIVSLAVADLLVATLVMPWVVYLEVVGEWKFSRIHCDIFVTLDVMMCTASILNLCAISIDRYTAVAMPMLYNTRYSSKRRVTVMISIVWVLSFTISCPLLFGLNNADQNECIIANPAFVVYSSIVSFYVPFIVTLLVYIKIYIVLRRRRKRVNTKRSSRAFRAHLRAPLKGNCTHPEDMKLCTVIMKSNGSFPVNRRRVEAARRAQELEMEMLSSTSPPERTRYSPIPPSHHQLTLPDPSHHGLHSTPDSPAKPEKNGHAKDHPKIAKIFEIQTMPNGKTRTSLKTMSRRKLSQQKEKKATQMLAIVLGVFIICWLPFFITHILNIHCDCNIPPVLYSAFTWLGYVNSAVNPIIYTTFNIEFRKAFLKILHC

According to ChEMBL document CHEMBL1140704, “Further structure-activity relationships study of hybrid 7-{[2-(4-phenylpiperazin-1-yl)ethyl]propylamino}-5,6,7,8-tetrahydronaphthalen-2-ol analogues: identification of a high-affinity D3-preferring agonist with potent in vivo activity with long duration of action” (J Med Chem, 2008):

Experiments:
D(2) dopamine receptor [1] = biological target: T1, D(2) dopamine receptor (Homo sapiens, UniProt P14416); experiment: biochemical
D(2) dopamine receptor [2] = biological target: T1, D(2) dopamine receptor; experiment: Agonist activity at human cloned dopamine D2L receptor expressed in CHO cells assessed as stimulation of [35S]GTPgammaS binding; format: functional, cell-based

Row | SMILES | Ki (D(2) dopamine receptor [1]) | EC50 (D(2) dopamine receptor [2])
1 | CCCN(CCN1CCN(c2ccccc2)CC1)C1CCc2c(O)cccc2C1 (stereo in doubt; 6a) | 58.6 nM | 
2 | CCCN(CCN1CCN(c2ccccc2)CC1)C1CCc2c(O)cccc2C1 (stereo in doubt; (+)-25) | 238 nM | 
3 | CCCN(CCN1CCN(c2ccccc2)CC1)C1CCc2c(O)cccc2C1 (stereo in doubt; (-)-25) |  | 2.22 nM
